Results reported in ChEMBL document CHEMBL3400112, “Design, syntheses, and pharmacological characterization of 17-cyclopropylmethyl-3,14β-dihydroxy-4,5α-epoxy-6α-(isoquinoline-3'-carboxamido)morphinan analogues as opioid receptor ligands” (Bioorg Med Chem, 2015).

Test system: Mus musculus
Assay: Antinociceptive activity in sc dosed mouse by warm water tail-flick test relative to control

CN(C(=O)Cc1ccc(Cl)c(Cl)c1)C1CCCCC1N1CCCC1 (stereo unspecified) showed an MPE of 25%.
